Permeability data for macrocyclic peptides

Source: CycPeptMPDB (Li et al. 2023), which took these values from Ahlbach et al. 2015, doi:10.4155/fmc.15.78.

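The data file gives no further conditions (lipid, pH, time, direction or concentration), and values from different papers need not be comparable. The list need not hold all peptides of the study. Entries at the database's floor value (log10 P of -10) are not listed.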

PAMPA measures passive passage through an artificial lipid membrane. Values are log10 P with P in cm/s, so -5 is more permeable than -7.

Listed for CC[C@H](C)[C@@H]1NC(=O)CNC(=O)[C@@H](C)N(C)C(=O)[C@H](C(C)C)NC(=O)[C@H]([C@@H](C)O)N(C)C(=O)[C@H](C(C)C)NC(=O)[C@H]([C@@H](C)O)N(C)C(=O)[C@H](C(C)C)NC(=O)CNC(=O)[C@@H](Cc2ccccc2)N(C)C(=O)[C@H](C(C)C)NC(=O)[C@H](CO)NC(=O)[C@H](C(C)C)N(C)C(=O)[C@H](CO)N(C)C1=O: PAMPA -8.39 (log10 cm/s).
Listed for CC[C@H](C)[C@@H]1NC(=O)[C@H]([C@@H](C)O)NC(=O)[C@H](Cc2ccc(OC)cc2)NC(=O)[C@@H]2CCCN2C1=O: PAMPA -7.24 (log10 cm/s).
Listed for CC(C)C[C@H]1OC(=O)CCNC(=O)[C@H](C)N(C)C(=O)[C@H](C(C)C)N(C)C(=O)[C@H](C(C)C)NC(=O)[C@@H]2CCCN2C1=O: PAMPA -5.89 (log10 cm/s).
Listed for C/C=C/C[C@@H](C)[C@@H](O)[C@H]1C(=O)N[C@@H](CC)C(=O)N(C)CC(=O)N(C)[C@@H](CC(C)C)C(=O)N[C@@H](C(C)C)C(=O)N(C)[C@@H](CC(C)C)C(=O)N[C@@H](C)C(=O)N[C@H](C)C(=O)N(C)[C@@H](CC(C)C)C(=O)N(C)[C@@H](CC(C)C)C(=O)N[C@@H](C(C)C)C(=O)N1C: PAMPA -6.39 (log10 cm/s).
Listed for CC(C)C[C@@H]1OC(=O)[C@H](C)NC(=O)[C@H](C(C)C)OC(=O)[C@H](C)N(C)C(=O)[C@@H](C)NC(=O)[C@@H](Cc2ccccc2)N(C)C1=O: PAMPA -5.14 (log10 cm/s).
Listed for CC(C)C[C@@H]1NC(=O)[C@H](C)N(C)C(=O)CNC(=O)/C(=C/c2ccccc2)N(C)C1=O: PAMPA -5.61 (log10 cm/s).